For one compound, MIC results are on record in ChEMBL document CHEMBL1671631, “Staphylococcus aureus PBP4 is essential for beta-lactam resistance in community-acquired methicillin-resistant strains” (2008).

This assay has as its system Staphylococcus aureus. In words: Antimicrobial activity against wild type community-acquired methicillin-resistant Staphylococcus aureus MW2 ex serotype USA400 by microdilution method. It is filed as functional. The gist of the method: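 Broth microdilution MIC per CLSI guidelines, inoculum 5 x 10^5 CFU/ml, confirmed by plating serial dilutions. Run in triplicate; three independent clones per mutant. Reported as the median of at least three independent experiments. MBC: clear wells plated onto drug-free tryptic soy agar, 37°C, 24 and 48 h. pEPSA5-carrying strains tested with and without xylose, no chloramphenicol.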

In brackets after ≈: the same amount, converted by molar mass.

Consider `Cc1onc(-c2ccccc2)c1C(=O)N[C@@H]1C(=O)N2[C@@H]1SC(C)(C)[C@@H]2C(=O)O` [OXACILLIN], for which 128 µg/mL (≈ 319 µM) was the least that counted as inhibitory (MIC).
